What was measured:
[1] = system: muscle-derived stromal cells (MDSC); test: MDSC proliferation (CellTiter-Glo luminescent cell viability assay); format: cell-based; details: Example 3; recombinant human BMPs, data not shown
Protocol: CellTiter-Glo® luminescent cell viability assay for MDSC in culture with A: TNF-α, B: IL-6 and C: IL-1β. 2.5×10^3 cells were cultured in triplicate for 1, 3 and 5 days in human serum-containing media ± recombinant human cytokine at the concentration indicated. The number of viaBIe cells in culture was determined using the assay, where luminescent signal is directly proportional to the concentration of ATP from viaBIe cells.
It was hypothesized that as proliferation of MDSC cultured in supernatant was not fracture-dependent (see FIG. 25C), cytokines were not responsiBIe for the pattern of cellular proliferation seen. In order to test this hypothesis, proliferation of MDSC in human serum-containing media with rhTNF-α, rhIL-6 and rhIL-1β was tested using the CellTiter-Glo® luminescent cell viability assay was used (Promega Corp., Madison, Wis.).
This method assays the number of viaBIe cells in culture, by measuring adenosine triphosphate (ATP), where the luminescent signal is directly proportional to the number of ATP present. […] Proliferation was not dose-dependently-linked to the presence of pro-inflammatory cytokines TNF-α, IL-1β or IL-6 (FIG. 28).

[2] = system: muscle-derived stromal cells (MDSC); test: ALP quantification assay, osteogenic differentiation of cultured MDSC; format: cell-based, human
Text: FIG. 26 TNF-α and IL-6 promote osteogenic differentiation of MDSC A-D: ALP quantification assays after culture of 1×10^4 MDSC for 7 days in a 96-well plate in triplicate with: A: fracture supernatant, ±antibody neutralization of BMPs 2/4 7 and to TGF-β. The immunoglobulin isotype controls used included IgG^1 for AbBMP-2/4 and AbTGF-β, and IgG^2B for Ab-BMP-7. B: human serum containing culture medium with the addition of recombinant human BMPs and TGF-β. C: fracture supernatant±antibody neutralization of TNF-α, IL-6 and IL-1β. The IgG^1 immunoglobulin was used as the antibody isotype control. D: human serum-containing culture medium with the addition of recombinant human TNF-α, IL-6 and IL-1β. […]
To investigate the fracture-derived stimulus for osteogenic differentiation of MDSC, fracture supernatants were prepared using human tibial fracture fragments obtained within 24 hours of injury (ethics approval number—COREC No: 07/Q0411/30). Supernatants harvested from non-fractured tibiae in patients requiring amputation as a result of severe foot trauma cut atraumatically with a fine surgical saw were used as “non-fracture controls.” Using RT-PCR and ALP quantification, we estaBIished that only fracture supernatant but not supernatants from surgically cut bone stimulated osteogenic differentiation of MDSC in vitro. […]

B1: BMP2: recombinant human bone morphogenetic protein 2 (protein, UniProt P12643 283-396, looked up)
Bone morphogenetic protein 2: QAKHKQRKRLKSSCKRHPLYVDFSDVGWNDWIVAPPGYHAFYCHGECPFPLADHLNSTNHAIVQTLVNSVNSKIPKACCVPTELSAISMLYLDENEKVVLKNYQDMVVEGCGCR
[1]
  cell proliferation in excess of the media-only control: did not induce cell proliferation
[2]; Example 1, exogenous recombinant human factor added to MDSC culture (FIG. 8, 10, 12)
  ALP expression (osteogenic differentiation) in cultured MDSC: promotes osteogenic differentiation
[2]; Example 3, 7 days in human serum-containing media with recombinant human factor (FIG. 26B, 26D)
  ALP expression by MDSC: did not induce ALP expression

Reference: patent publication US20120213826A1, “Use of Pro-Inflammatory Compounds for Promoting Bone Formation” (Imperial Innovations Limited, priority 2009, published 2012)
